Values joined by “and” are separate entries in the source; they are usually repeats but may differ in a detail not shown here. Identical values can stand only once. “Also recorded” adds a separate entry of the source. Like-named read-outs stand apart in the source and are kept apart here.

Chains of the proteins cited; added tags and fusions are not shown. Residues count along the entry.
UniProt P32241, 31-457: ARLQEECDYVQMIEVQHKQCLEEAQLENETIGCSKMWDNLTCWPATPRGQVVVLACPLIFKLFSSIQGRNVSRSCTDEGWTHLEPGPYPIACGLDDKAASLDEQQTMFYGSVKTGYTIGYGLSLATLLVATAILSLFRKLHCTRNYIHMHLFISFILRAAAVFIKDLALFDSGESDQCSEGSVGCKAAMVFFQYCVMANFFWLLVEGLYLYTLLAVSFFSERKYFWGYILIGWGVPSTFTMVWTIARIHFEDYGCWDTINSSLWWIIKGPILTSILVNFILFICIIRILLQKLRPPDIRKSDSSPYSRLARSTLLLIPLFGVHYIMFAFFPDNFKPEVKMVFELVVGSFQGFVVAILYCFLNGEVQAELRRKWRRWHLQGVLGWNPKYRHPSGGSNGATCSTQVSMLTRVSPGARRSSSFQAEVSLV

These results are taken from paper PMC4420714 (Peptides, 2015).

The target of assay [1] is T1, PAC1-R (Homo sapiens, UniProt P41586).
T1 sequence (P41586 21-468): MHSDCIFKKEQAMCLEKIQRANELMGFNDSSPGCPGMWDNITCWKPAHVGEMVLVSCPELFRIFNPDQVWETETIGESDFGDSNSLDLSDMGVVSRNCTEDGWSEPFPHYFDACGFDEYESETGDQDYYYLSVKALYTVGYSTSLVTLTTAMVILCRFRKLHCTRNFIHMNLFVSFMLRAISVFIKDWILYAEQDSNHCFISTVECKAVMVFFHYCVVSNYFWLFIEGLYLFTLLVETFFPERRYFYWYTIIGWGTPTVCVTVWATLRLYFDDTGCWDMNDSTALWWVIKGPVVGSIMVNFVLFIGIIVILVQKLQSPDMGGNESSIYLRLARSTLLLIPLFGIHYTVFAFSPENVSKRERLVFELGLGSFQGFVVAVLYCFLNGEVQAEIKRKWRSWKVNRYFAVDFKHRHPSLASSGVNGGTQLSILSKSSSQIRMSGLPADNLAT
Briefly: [3H]cAMP generation in PAC1-R cells. Type of assay: cell-based. The conditions noted are these: for EC50: read-out: [3H]cAMP PAC1-R EC50; for [3H]cAMP PAC1-R % max (agonist class): relative to maximal stimulation by PACAP38, up to 1 µM; for higher potency for PAC1-R cells compared to VPAC1-R/PANC-1 cells / higher potency for PAC1-R cells compared to VPAC2-R/PANC-1 cells: cAMP generation EC50 ratio.

The target in assay [2] is T2, VPAC2-R (Homo sapiens, UniProt P41587).
T2 sequence (P41587 24-438): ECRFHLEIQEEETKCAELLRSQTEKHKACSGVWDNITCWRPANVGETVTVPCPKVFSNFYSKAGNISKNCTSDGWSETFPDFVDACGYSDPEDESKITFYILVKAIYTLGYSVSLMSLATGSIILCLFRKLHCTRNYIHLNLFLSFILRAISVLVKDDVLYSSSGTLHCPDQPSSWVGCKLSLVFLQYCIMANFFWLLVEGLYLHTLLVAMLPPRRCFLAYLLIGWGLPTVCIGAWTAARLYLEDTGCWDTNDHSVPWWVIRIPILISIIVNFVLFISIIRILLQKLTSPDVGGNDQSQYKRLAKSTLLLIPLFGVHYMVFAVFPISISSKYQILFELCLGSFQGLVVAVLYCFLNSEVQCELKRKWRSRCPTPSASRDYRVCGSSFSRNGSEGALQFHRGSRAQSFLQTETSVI
Type of assay: binding. The settings on record: read-out: IC50 VPAC2-R, Sup-T1; Sup-T1 cells, 75 pM 125I-Ro 25-1553, 37°C.

For assay [3], the target named is T2, VPAC2-R. The experiment in a line: [3H]cAMP generation in VPAC2-R/PANC-1 cells. The conditions noted are these: read-out: [3H]cAMP VPAC2-R/PANC-1 EC50. Type of assay: cell-based.
Assay [4] addresses T1, PAC1-R. The experiment in a line: Binding of 125I-PACAP27 to PAC1-R stably transfected NIH 3T3 cells. The conditions noted are these: for lower affinity for PAC1-R cells than VPAC1-R/PANC-1 cells / lower affinity for PAC1-R cells than VPAC2-R/PANC-1 cells: binding IC50 ratio; for lower affinity for PAC1-R cells than VPAC1-R/PANC-1 cells: VPAC1-R preferring; for lower affinity for PAC1-R cells than VPAC2-R/PANC-1 cells: VPAC2-R preferring; for decrease in affinity for PAC1-R cells compared to native PACAP38 (or PACAP27): ratio of binding IC50, analog vs native parent peptide; for IC50: read-out: IC50 PAC1-R.

The target in assay [5] is T3, VPAC1-R (Homo sapiens, UniProt P32241). Briefly: [3H]cAMP generation in T47D cells. Type of assay: cell-based. The settings on record: T47D cells; for EC50: read-out: [3H]cAMP T47D EC50.
In assay [6] the target is T3, VPAC1-R. The experiment in a line: [3H]cAMP generation in VPAC1-R/PANC-1 cells. Type of assay: cell-based. The conditions noted are these: for greater affinity than potency for stimulating cAMP generation, VPAC1-R/PANC-1 cells: EC50 cAMP over binding IC50; for EC50: read-out: [3H]cAMP VPAC1-R/PANC-1 EC50, VPAC1-R/PANC-1 cells.

For “vasoactive intestinal peptide [VIP, reference compound]”, at PAC1-R [1] (PAC1-R cells), the EC50 amounted to 174 ± 10 nM.

Take [Pro^3]PACAP27 [Peptide P5]: the IC50 on VPAC2-R [2] is over 1000 nM. Also, the EC50 on VPAC2-R [3] (VPAC2-R/PANC-1 cells) is over 1000 nM. On PAC1-R [4], the “lower affinity for PAC1-R cells than VPAC1-R/PANC-1 cells” value is 6–10 fold, the “lower affinity for PAC1-R cells than VPAC2-R/PANC-1 cells” value is on record as 2–9 fold and the “decrease in affinity for PAC1-R cells compared to native PACAP38 (or PACAP27)” value (from here on “decrease in affinity for PAC1-R cells”) was > 1,000 fold. For the same substance, on PAC1-R [1] (PAC1-R cells), the “[3H]cAMP PAC1-R % max (agonist class)” value was “Ag (1 µM, 55)” and the EC50 was 776 ± 67 nM. Further, at PAC1-R [1], the “higher potency for PAC1-R cells compared to VPAC1-R/PANC-1 cells” value is 2-to-5 fold and the “higher potency for PAC1-R cells compared to VPAC2-R/PANC-1 cells” value is reported as 2–5 fold. In addition, the EC50 at VPAC1-R [5] is over 1000 nM. Further, on VPAC1-R [6], the “greater affinity than potency for stimulating cAMP generation, VPAC1-R/PANC-1 cells” value is 1.2–65.2 fold and the EC50 was over 1000 nM.

On to [Sar^4]PACAP27 [Peptide P22], for which the IC50 at VPAC2-R [2] is 302 ± 15 nM; on PAC1-R [4], 55 to 69 nM and 69 nM. Moreover, the EC50 at VPAC2-R [3] (VPAC2-R/PANC-1 cells), on PAC1-R [1], at VPAC1-R [5] and at VPAC1-R [6] was over 1000 nM throughout. Also, the “lower affinity for PAC1-R cells than VPAC2-R/PANC-1 cells” value at PAC1-R [4] stood at 2 fold. The “decrease in affinity for PAC1-R cells” value on PAC1-R [4] is recorded as 15–25 fold. Besides, the “greater affinity than potency, PAC1-R cells” value at PAC1-R [1] (EC50 cAMP over binding IC50) is recorded as 1.2- to 64 fold. For the same substance, on PAC1-R [1] (PAC1-R cells), the “[3H]cAMP PAC1-R % max (agonist class)” value was “inactive; also recorded: Ag (1 µM, 50)”. Also, the “greater affinity than potency for stimulating cAMP generation, VPAC1-R/PANC-1 cells” value on VPAC1-R [6] is 1.2–65.2 fold.

Regarding [Lys^34]PACAP38 [Peptide P24], the IC50 on VPAC2-R [2] came to 4.2 ± 0.16 nM. Further, the EC50 was 2.57 ± 0.17 nM on VPAC2-R [3] (VPAC2-R/PANC-1 cells), 0.29 ± 0.01 nM on PAC1-R [1] (PAC1-R cells), 5.5 ± 0.35 nM on VPAC1-R [5] and 2.88 ± 0.16 nM on VPAC1-R [6]. Besides, on PAC1-R [4], the “decrease in affinity for PAC1-R cells” value was 5–10 fold. Moreover, the “higher potency for PAC1-R cells compared to VPAC1-R/PANC-1 cells” value at PAC1-R [1] is 6–15 fold. Also, the “higher potency for PAC1-R cells compared to VPAC2-R/PANC-1 cells” value at PAC1-R [1] was 7-to-15 fold. In addition, on VPAC1-R [5] (partial agonist maximum), the “[3H]cAMP T47D % max of partial agonist” value is given as “pAg (85) % max”. On VPAC1-R [5] (relative to PACAP38, up to 1 µM), the “[3H]cAMP T47D % max (agonist class)” value was “pAg (85)”. The “greater affinity than potency for stimulating cAMP generation, VPAC1-R/PANC-1 cells” value at VPAC1-R [6] is reported as 1.2–65.2 fold.

As for [Me-Lys^15]PACAP27 [Peptide P2], on PAC1-R [4], the “lower affinity for PAC1-R cells than VPAC1-R/PANC-1 cells” value was 6–10 fold, the “lower affinity for PAC1-R cells than VPAC2-R/PANC-1 cells” value is 2–9 fold and the “decrease in affinity for PAC1-R cells” value is reported as > 1,000 fold. Besides, on PAC1-R [1], the “higher potency for PAC1-R cells compared to VPAC1-R/PANC-1 cells” value is given as 2-to-5 fold and the “higher potency for PAC1-R cells compared to VPAC2-R/PANC-1 cells” value is 12–140 fold. In addition, on VPAC1-R [6], the “greater affinity than potency for stimulating cAMP generation, VPAC1-R/PANC-1 cells” value is 1.2–65.2 fold.

Consider [D-Ser^2]PACAP27 [Peptide P4], for which the IC50 was 72.4 ± 6.5 nM at VPAC2-R [2]; 55 to 69 nM and 54.9 nM on PAC1-R [4]. Also, the EC50 was determined as 7.41 ± 0.32 nM at VPAC2-R [3], 0.47 ± 0.03 nM at PAC1-R [1], 3.39 ± 0.29 nM at VPAC1-R [5] and 1.58 ± 0.19 nM at VPAC1-R [6].

Consider [Sar^3]PACAP27 [Peptide P6], for which, at VPAC2-R [2], the half-inhibitory concentration (IC50) was over 1000 nM. For the same substance, the EC50 is over 1000 nM on VPAC2-R [3] (VPAC2-R/PANC-1 cells), 602 ± 25 nM at PAC1-R [1] (PAC1-R cells), 776 ± 49 nM on VPAC1-R [5] and 22.9 ± 0.8 nM on VPAC1-R [6]. For the same substance, the “decrease in affinity for PAC1-R cells” value at PAC1-R [4] was > 1,000 fold. Besides, the “[3H]cAMP PAC1-R % max (agonist class)” value on PAC1-R [1] (PAC1-R cells) is on record as “Ag (1 µM, 63)”.

For the substance “[Pip^3,Aib^16,Ala^17]PACAP27 [Peptide P7]”, the IC50 on VPAC2-R [2] is over 1000 nM. For the same substance, the EC50 on VPAC2-R [3] (VPAC2-R/PANC-1 cells) is over 1000 nM. On PAC1-R [4], the “lower affinity for PAC1-R cells than VPAC1-R/PANC-1 cells” value is on record as 6–10 fold and the “decrease in affinity for PAC1-R cells” value is > 1,000 fold. Also, at PAC1-R [1] (PAC1-R cells), the “[3H]cAMP PAC1-R % max (agonist class)” value was “no agonist activity; also recorded: No Act” and the EC50 is over 1000 nM. In addition, the EC50 at VPAC1-R [5] is over 1000 nM. On VPAC1-R [6], the “greater affinity than potency for stimulating cAMP generation, VPAC1-R/PANC-1 cells” value is 1.2–65.2 fold and the EC50 was over 1000 nM.
